Results as given in paper PMC9287138, “Proteasome activator 28γ (PA28γ) allosterically activates trypsin-like proteolysis by binding to the α-ring of the 20S proteasome” (The Journal of Biological Chemistry, 2022).

Tests used:
[1] = biological target: T1, α3ΔN yeast 20S proteasome (α3ΔN-Y20S), constitutively open-gate (yeast), P21243
[2] = biological target: T1, α3ΔN yeast 20S proteasome (α3ΔN-Y20S), …; remark: listed apart in the source
[3] = biological target: T2, Proteasome activator 28γ (PA28γ), recombinant human, wild type (human), P61289; assay: cryo-EM structure; PA28γ and H20S mixed at a 1:1 M ratio, plunge-frozen; single particle analysis in cryoSPARC, 876 particles, C7 symmetry applied, 4.3 Å; details: remark: other sources report otherwise
T2 chain: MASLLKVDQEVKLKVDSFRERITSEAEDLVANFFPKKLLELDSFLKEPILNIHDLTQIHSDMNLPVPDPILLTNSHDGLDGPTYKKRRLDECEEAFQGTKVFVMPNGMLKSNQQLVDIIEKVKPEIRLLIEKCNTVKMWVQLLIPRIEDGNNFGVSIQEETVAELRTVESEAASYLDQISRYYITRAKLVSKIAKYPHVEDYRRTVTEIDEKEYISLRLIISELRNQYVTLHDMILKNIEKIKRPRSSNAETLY

B1: Proteasome activator 28γ (PA28γ), recombinant human, wild type, P61289 1-254 (natural protein)
chain: MASLLKVDQEVKLKVDSFRERITSEAEDLVANFFPKKLLELDSFLKEPILNIHDLTQIHSDMNLPVPDPILLTNSHDGLDGPTYKKRRLDECEEAFQGTKVFVMPNGMLKSNQQLVDIIEKVKPEIRLLIEKCNTVKMWVQLLIPRIEDGNNFGVSIQEETVAELRTVESEAASYLDQISRYYITRAKLVSKIAKYPHVEDYRRTVTEIDEKEYISLRLIISELRNQYVTLHDMILKNIEKIKRPRSSNAETLY
activation of α3ΔN-Y20S with the T-L substrate RLR-AMC by PA28γ (62.5 nM), against α3ΔN-Y20S controls [1]: 15 fold
decrease of the Km of α3ΔN-Y20S for the T-L substrate RLR-AMC with PA28γ (62.5 nM) [2]: > 400%
fold change of the catalytic efficiency (Kcat/Km) of the T-L site of α3ΔN-Y20S with PA28γ (62.5 nM) [2]: > 13 fold
increase of the Vmax of α3ΔN-Y20S for the T-L substrate RLR-AMC with PA28γ (62.5 nM) [2]: > 300%
stoichiometry N [3]: 7
